The data set is described as follows: Pharmacokinetic profiling in mouse (i.v., s.c.). Particulars: Mouse C57bl/6, 10 nmol/kg, AUC(s.c.)0-inf/AUC(i.v.)0-inf. The text has this: Selected test peptides (n=8) were profiled for pharmacokinetic (PK) properties in the mouse after single intravenous (i.v.) or subcutaneous (s.c.) dose. A subset (n=4) meeting the acceptance criteria was subsequently profiled in the dog (single i.v. dose) and non-human primate (single i.v. and s.c. dose). […] Low-binding plasticware containers were used during preparation and sample handling to avoid non-specific binding.
After dosing, PK samples were collected from the dorsal metatarsal vein. Blood of each sample was transferred into plastic micro centrifuge tubes containing EDTA-K2, inverted several times for proper mixing of contents and then placed on wet ice. The blood samples were centrifuged at 4° C. to obtain plasma and stored at −75° C. prior to analysis.
Samples analysis: Samples were analyzed by LC-MS/MS. Calibration standards were injected at the beginning and end of each batch and the determined concentration for each prepared standard was used to construct a calibration curve. Plasma and dose aliquot sample concentrations were determined from the plasma calibration curve.
Data analysis: Plasma concentration data was analyzed by non-compartmental analysis (NCA) using Phoenix Winnonlin v. 8.3.3.33. […] Subcutaneous bioavailability was calculated as the ratio AUC(s.c.)0-inf/AUC(i.v.)0-inf. […]

This note sets out measurements from patent US12630600B2 (MEDIMMUNE LIMITED, priority 2022, dated 2026).

Substance “H-Aib-Q-G-T-F-T-S-D-V-S-K-αMePhe-L-D-T-K-R-A-R-D-F-V-Q-W-L-L-E-Aib-G-acid [Peptide 195]” came in with a S.c. bioavailability of 66%.
